{"sequences": {"note": "Sequences of proteins named here, by UniProt entry; tags and fusion partners are left off. Residues count along the entry.", "UniProt Q09472, 1040-1161 limits assumed": "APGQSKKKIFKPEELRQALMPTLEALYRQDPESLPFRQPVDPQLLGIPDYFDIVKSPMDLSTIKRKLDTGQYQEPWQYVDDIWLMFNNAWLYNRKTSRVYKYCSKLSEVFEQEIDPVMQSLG"}, "source": "patent US11446287B2", "about": "“Compounds and methods for EP300 or CBP modulation and indications therefor” (Opna Immuno-Oncology SA, priority 2019, dated 2022)", "key": {"[1]": {"target": "Recombinant human BRD4 containing dual bromodomains (BRD4-BD12 (1-477)) (Homo sapiens, UniProt O60885)", "assay": "BRD4 Alphascreen binding assay", "settings": "read-out: BRD4 IC50", "protocol": "BRD4 Alphascreen Binding Assay\nBinding of compounds of Formula (I) with BRD4 was assessed using Alphascreen binding assay. The inhibition of the interaction between BRD4 and its acetylated target protein was measured quantitatively using recombinant BRD4 protein, an acetylated Histone 4 peptide, and AlphaScreen™ technology. In absence of inhibition of the BRD4 protein bound to AlphaScreen™ nickel chelate acceptor beads can interact with the acetylated Histone 4 peptide which was immobilized by the AlphaScreen™ Streptavidin coated beads. This interaction brings donor and acceptor beads in proximity. The close proximity allows the singlet oxygen produced by laser excitation of the donor beads to reach the acceptor beads and generate a luminescence signal. BRD4 inhibitors result in a decrease in the proximity signal through an inhibition of the BRD4—acetylated peptide interaction.\nRecombinant human BRD4 containing dual bromodomains (BRD4-BD12 (1-477)) was prepared and purified as described in protein expression and purification session. The peptide was human Histone H41-21K5AcK8AcK12AcK16Ac-Biotin (Anaspec CA, USA).\nProtocol for BRD4 assay: All components are prepared in buffer composed of 50 mM HEPES pH 7.5, 50 mM NaCl, 0.01% BSA, 0.01% Triton X-100, 2 mM DTT. […] 30 minutes after bead addition, Alpha signal was read on the Envision spectrometer (λEx 680 nm, λEm 520-620 nm). […]"}, "[2]": {"target": "Recombinant human EP300 containing the bromodomain (EP300-BD (1040-1161)) (Homo sapiens, UniProt Q09472)", "assay": "EP300 Alphascreen binding assay", "settings": "read-out: EP300 IC50", "protocol": "EP300 Alphascreen Binding Assay\n(§1) Binding of compounds of Formula (I) with EP300 was assessed using Alphascreen™ binding assay. The inhibition of the interaction between the EP300 bromodomain and its acetylated target protein was measured quantitatively using recombinant EP300 protein, an acetylated Histone 3 peptide and AlphaScreen™ technology. In absence of inhibition of the EP300 protein bound to AlphaScreen™ nickel chelate acceptor beads can interact with the acetylated Histone 3 peptide which is immobilized by the AlphaScreen™ Streptavidin coated beads. This interaction brings donor and acceptor beads in proximity. The close proximity allows the singlet oxygen produced by laser excitation of the donor beads to reach the acceptor beads and generate a luminescence signal. EP300 inhibitors result in a decrease in the proximity signal through an inhibition of the EP300—acetylated peptide interaction.\nRecombinant human EP300 containing the bromodomain (EP300-BD (1040-1161)) was prepared and purified as described in protein expression and purification session. The peptide is human Histone H345-64K56Ac-Biotin (Anaspec CA, USA).\nProtocol for EP300 assay: All components were prepared in buffer composed of 50 mM HEPES pH 7.5, 50 mM NaCl, 0.01% BSA, 0.01% Triton X-100, 2 mM DTT. […] 60 minutes after bead addition, Alpha signal is read on the Envision spectrometer (λEx 680 nm, λEm 520-620 nm). […]"}, "[3]": {"target": "Recombinant human CBP containing the bromodomain (CBP-BD (1043-1159)) (Homo sapiens, UniProt Q92793)", "assay": "CBP Alphascreen binding assay", "settings": "read-out: CREBBP (CBP) IC50", "protocol": "CBP Alphascreen Binding Assay\nas §1, with “with CBP” for “with EP300”, “the CBP” for “the EP300”, “recombinant CBP,” for “recombinant EP300 protein,”, “which was” for “which is”, “signal. CBP” for “signal. EP300”, “the CBP—acetylated” for “the EP300—acetylated”\nRecombinant human CBP containing the bromodomain (CBP-BD (1043-1159)) was prepared and purified as described in protein expression and purification session. The peptide was human Histone H345-64K56Ac-Biotin (Anaspec CA, USA).\nProtocol for CBP assay: All components are prepared in buffer composed of 50 mM HEPES pH 7.5, 50 mM NaCl, 0.01% BSA, 0.01% Triton X-100, 2 mM DTT. […] 60 minutes after bead addition, Alpha signal was read on the Envision spectrometer (λEx 680 nm, λEm 520-620 nm). […]"}}, "note": "pIC50: −log10 of the molar value.", "data": [{"smiles": "CCOc1cc(C(=O)O)nc(OCC)c1-c1cn(-c2ccc(C3CC3)nc2)c2ncc(-c3c(C)noc3C)cc12", "values": [{"measurement": "pIC50", "setting": "[1]", "result": "5.10 to 6.00"}, {"measurement": "pIC50", "setting": "[2]", "result": "6.00 to 10.00"}, {"measurement": "pIC50", "setting": "[3]", "result": "6.00 to 10.00"}]}]}
